This passage reports IC50 results from publication PMC12749252 (Nature Communications, 2025).

Protein sequences, listed by entry. Tags and fused reporters are not part of them. Lines headed by an entry give the natural chain unless they say otherwise; changes in a name come on top.
UniProt Q9P2K8: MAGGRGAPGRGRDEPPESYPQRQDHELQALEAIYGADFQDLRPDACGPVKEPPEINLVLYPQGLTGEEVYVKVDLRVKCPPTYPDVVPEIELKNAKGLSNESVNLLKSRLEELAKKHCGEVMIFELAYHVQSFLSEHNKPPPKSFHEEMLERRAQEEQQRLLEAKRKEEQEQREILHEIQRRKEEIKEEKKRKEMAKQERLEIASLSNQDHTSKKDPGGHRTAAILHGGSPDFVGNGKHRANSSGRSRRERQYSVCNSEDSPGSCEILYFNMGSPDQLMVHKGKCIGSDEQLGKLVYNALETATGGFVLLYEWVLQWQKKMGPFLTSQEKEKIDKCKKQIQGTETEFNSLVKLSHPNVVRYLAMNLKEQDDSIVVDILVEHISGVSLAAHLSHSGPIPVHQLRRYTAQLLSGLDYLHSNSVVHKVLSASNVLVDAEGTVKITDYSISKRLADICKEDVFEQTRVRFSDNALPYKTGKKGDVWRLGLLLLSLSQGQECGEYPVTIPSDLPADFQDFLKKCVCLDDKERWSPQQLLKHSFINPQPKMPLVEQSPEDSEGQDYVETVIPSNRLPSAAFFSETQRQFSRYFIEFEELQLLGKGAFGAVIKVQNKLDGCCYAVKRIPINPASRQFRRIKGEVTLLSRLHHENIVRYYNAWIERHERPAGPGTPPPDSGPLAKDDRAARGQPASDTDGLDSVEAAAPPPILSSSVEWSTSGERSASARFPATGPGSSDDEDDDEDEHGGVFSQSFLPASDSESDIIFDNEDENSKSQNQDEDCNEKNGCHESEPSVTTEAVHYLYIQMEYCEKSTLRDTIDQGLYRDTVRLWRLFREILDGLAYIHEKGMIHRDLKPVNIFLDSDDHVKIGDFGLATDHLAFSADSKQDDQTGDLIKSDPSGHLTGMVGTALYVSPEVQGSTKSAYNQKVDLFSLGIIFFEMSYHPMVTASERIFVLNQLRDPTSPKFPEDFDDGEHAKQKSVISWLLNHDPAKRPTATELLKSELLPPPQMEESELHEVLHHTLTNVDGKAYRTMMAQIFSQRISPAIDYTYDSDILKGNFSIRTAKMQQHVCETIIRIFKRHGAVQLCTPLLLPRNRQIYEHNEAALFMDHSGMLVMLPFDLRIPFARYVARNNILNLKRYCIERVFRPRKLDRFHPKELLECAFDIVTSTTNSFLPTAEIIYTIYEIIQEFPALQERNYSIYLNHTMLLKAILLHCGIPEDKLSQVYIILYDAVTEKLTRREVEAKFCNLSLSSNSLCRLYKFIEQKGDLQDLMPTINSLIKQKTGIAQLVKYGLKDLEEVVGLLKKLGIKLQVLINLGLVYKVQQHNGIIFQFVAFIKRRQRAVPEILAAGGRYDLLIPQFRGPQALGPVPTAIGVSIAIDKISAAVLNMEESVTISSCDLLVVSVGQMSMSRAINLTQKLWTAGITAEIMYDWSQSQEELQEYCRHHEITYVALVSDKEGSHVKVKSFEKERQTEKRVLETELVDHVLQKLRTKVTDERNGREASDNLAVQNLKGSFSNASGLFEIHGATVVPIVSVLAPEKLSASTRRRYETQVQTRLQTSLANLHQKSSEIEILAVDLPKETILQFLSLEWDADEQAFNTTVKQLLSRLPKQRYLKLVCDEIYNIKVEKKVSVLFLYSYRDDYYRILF

As a reminder, the IC50 is the concentration that gives 50% inhibition. Low values mean greater potency, high ones weaker potency.

The target in this assay is GCN2 (Homo sapiens, UniProt Q9P2K8). Put plainly: Eurofins KinaseProfiler in vitro. The format is biochemical.

Structures are written as SMILES.

On to `CCOc1cc2ncc(C#N)c(Nc3ccc(OCc4ccccn4)c(Cl)c3)c2cc1NC(=O)/C=C/CN(C)C` [neratinib], for which the IC50 is 507 nM.
